Reference: PubChem BioAssay AID743397 (Broad Institute, 2014)
This is a selection; strong and weak results do not stand in their true shares. Some salts or complexes appear as unconnected parts, following the source record. Active and inactive are the calls of the source.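 How the source made its calls: active means mean replicate inhibition of at least 30% and at least 1% of replicates passing that level; inconclusive means only one of the two criteria is met; inactive means neither criterion is met.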

Each compound was assayed on Voltage-dependent L-type calcium channel subunit alpha-1D (CaV1.3) ICDI/IQ interaction (assay: Primary screen for inhibitors of IQ motif and Ca2+-dependent inactivation inhibitor domain binding in CACNA1D, Förster resonance energy transfer in living cells, single-concentration test (AID 743397;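 further: 0% = median of the neutral control wells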)). Settings: HEK cells, CFP/YFP FRET ICDI-IQ, plate reader, 10 min; at 12.3 µM; active compounds read high; percent FRET-ratio fall versus neutral wells.

| Structure (SMILES) | inhibition |
| --- | --- |
| CP(=O)(Nc1ccc(SC(F)(F)F)cc1)Oc1ccccc1 (stereo unspecified) | inactive: -2.97% |
| CCCOc1ccc(NP(C)(=O)Oc2ccc(Cl)cc2)cc1 (stereo unspecified) | inactive: -5.06% |
| COc1ccc(-c2ccccn2)cc1.O=[N+]([O-])c1cc([N+](=O)[O-])c(O)c([N+](=O)[O-])c1 | inactive: -11.4% |
| CN1CCCCC1COC(=O)C1(O)c2ccccc2CCc2ccccc21 (stereo unspecified) | inactive: -17.6% |
| COc1ccccc1OP(C)(=O)Nc1c(C)cccc1C (stereo unspecified) | inactive: -3.95% |
| CN(Cc1cccnc1)C(=O)COc1ccc(Cl)c(Cl)c1.O=[N+]([O-])c1cc([N+](=O)[O-])c(O)c([N+](=O)[O-])c1 | inactive: -4.82% |
| O=[N+]([O-])c1cc([N+](=O)[O-])c(-n2nnc3ccccc32)c([N+](=O)[O-])c1 | inactive: -6.43% |
| Cc1nc2ccc3ccccc3c2s1.O=[N+]([O-])c1cc([N+](=O)[O-])c(O)c([N+](=O)[O-])c1 | inactive: -4.28% |
| O=[N+]([O-])c1cc([N+](=O)[O-])c(-c2cnn(-c3ccccc3)c2)c([N+](=O)[O-])c1 | inactive: -12.8% |
| Cc1cc(C)cc(OP(C)(=O)Nc2ccc(C)cc2C)c1 (stereo unspecified) | inactive: -5.98% |
| CCOC(=O)c1ccc(NP(C)(=O)Oc2cc(C)cc(C)c2)cc1 (stereo unspecified) | inactive: -2.87% |
| COc1ccccc1OP(C)(=O)Nc1cccc(Br)c1 (stereo unspecified) | inactive: -6.28% |
| CP(=O)(Nc1cccc(Br)c1)Oc1ccccc1 (stereo unspecified) | inactive: 6.72% |
| Cc1ccc(C)c(NP(C)(=O)Oc2ccccc2)c1 (stereo unspecified) | inactive: -0.0515% |
| O=C(O)c1cccc(Nc2c([N+](=O)[O-])cc([N+](=O)[O-])cc2[N+](=O)[O-])c1 | inactive: -5.69% |
| CC1=NCCc2c1[nH]c1ccccc21.O=[N+]([O-])c1cc([N+](=O)[O-])c(O)c([N+](=O)[O-])c1 | inactive: -16.4% |
| COc1ccc(OP(C)(=O)Nc2ccc(SC(F)(F)F)cc2)cc1 (stereo unspecified) | inactive: -4.42% |
| CCOC(=O)c1ccc(NP(C)(=O)Oc2ccc(F)cc2)cc1 (stereo unspecified) | inactive: -4.31% |
| CCN(CC)CCCNc1ccccc1[N+](=O)[O-].O=[N+]([O-])c1cc([N+](=O)[O-])c(O)c([N+](=O)[O-])c1 | inactive: -10.7% |
| CCCCCOc1ccc(NP(C)(=O)Oc2ccc(Cl)cc2Cl)cc1 (stereo unspecified) | inactive: -2.25% |
| O=[N+]([O-])c1cc([N+](=O)[O-])c(OC2CCCCC2O)c([N+](=O)[O-])c1 (stereo unspecified) | inactive: -4.75% |
| CP(=O)(Nc1ccccc1)Oc1ccc(F)cc1 (stereo unspecified) | inactive: -2.11% |

| Structure (SMILES) | inhibition |
| --- | --- |
| CCN(CC)CCCOC(=O)C(O)(c1ccccc1)C1CCCCC1 (stereo unspecified) | inactive: -9.99% |
| Cc1c([N+](=O)[O-])cc([N+](=O)[O-])c(Br)c1[N+](=O)[O-] | inactive: -6.37% |
| CC(C)c1ccc(OP(C)(=O)Nc2ccc(SC(F)(F)F)cc2)cc1 (stereo unspecified) | inactive: -3.94% |
| CP(=O)(Nc1ccccc1F)Oc1ccccc1 (stereo unspecified) | inactive: -9.16% |
| O=[N+]([O-])c1cc([N+](=O)[O-])c(Nc2ccc(Cl)cc2)c([N+](=O)[O-])c1 | inactive: -9.52% |
| COc1ccc2c(c1O)-c1c(O)c(OC)cc3c1[C@H](C2)[N+](C)(C)CC3.O=[N+]([O-])c1cc([N+](=O)[O-])c([O-])c([N+](=O)[O-])c1[O-] | inactive: -6.05% |
| O=C(OCCN1CCN(CCOCc2ccccc2)CC1)C(O)(c1ccccc1)c1ccccc1 | inactive: -2.19% |
| O=C(OC1CN2CCC1CC2)c1ccc([N+](=O)[O-])cc1 (stereo unspecified) | inactive: 3.55% |
| CCOP(C)(=S)SCC(=O)NC(C)(CC)C(=O)O (stereo unspecified) | inactive: -4.29% |
| CP(=O)(Nc1ccc(SC(F)(F)F)cc1)Oc1ccc(F)cc1 (stereo unspecified) | inactive: -1.17% |
| O=[N+]([O-])c1cc([N+](=O)[O-])c(C(F)(F)F)c([N+](=O)[O-])c1O | inactive: -11.6% |
| CP(=O)(Nc1ccc2c(c1)OCCO2)Oc1ccccc1 (stereo unspecified) | inactive: -6.8% |
| COc1ccc(NP(C)(=O)Oc2ccccc2OC)cc1 (stereo unspecified) | inactive: -4.69% |
| CN(C)CCOC(=O)C(O)(c1ccccc1)C1CCCCC1 (stereo unspecified) | inactive: -7.03% |
| COc1ccc(OP(C)(=O)Nc2cccc(Br)c2)cc1 (stereo unspecified) | inactive: -4.12% |
| Cc1c(C(c2ccc3c(c2)OCO3)c2c(C)n(C)n(-c3ccccc3)c2=O)c(=O)n(-c2ccccc2)n1C.O=[N+]([O-])c1cc([N+](=O)[O-])c(O)c([N+](=O)[O-])c1 | inactive: 4.97% |
| Cc1cc(-c2cccc3ccccc23)c(C)cn1.O=[N+]([O-])c1cc([N+](=O)[O-])c(O)c([N+](=O)[O-])c1 | inactive: -5.6% |
| O=[N+]([O-])c1cc([N+](=O)[O-])c(NCC2CCS(=O)(=O)C2)c([N+](=O)[O-])c1 (stereo unspecified) | inactive: -3.82% |
| O=[N+]([O-])c1ccc(OP2(=O)COCCO2)cc1 (stereo unspecified) | inactive: -8.29% |
| CP(=O)(OC12CC3CC(CC(C3)C1)C2)OC12CC3CC(CC(C3)C1)C2 | inactive: -4.97% |
| CCOC(=O)c1ccc(NP(C)(=O)Oc2ccc(Cl)cc2)cc1 (stereo unspecified) | inactive: -4.25% |
| Nc1ccc2c(ccc3cccnc32)n1.O=[N+]([O-])c1cc([N+](=O)[O-])c(O)c([N+](=O)[O-])c1 | inactive: 6.42% |

| Structure (SMILES) | inhibition |
| --- | --- |
| CP(=O)(Oc1ccccc1)N1CCOC1=O (stereo unspecified) | inactive: -4.76% |
| CCc1ccc(OP(C)(=O)Nc2cccnc2)cc1 (stereo unspecified) | inactive: 6.12% |
| COc1ccccc1OP(C)(=O)Nc1c(C)n(C)n(-c2ccccc2)c1=O (stereo unspecified) | inactive: -4.64% |
| O=C(OCCCN1CCCC1)C(O)(c1ccccc1)C1CCCCC1 (stereo unspecified) | inactive: -4.23% |
| CCN(CC)CC(O)COC(=O)C(O)(c1ccccc1)C1CCCCC1 (stereo unspecified) | inactive: -5.57% |
| COc1ccc(OP(C)(=O)Nc2ccc(Br)cc2)cc1 (stereo unspecified) | inactive: -4.18% |
| CN(C)C(=O)c1c([N+](=O)[O-])cc([N+](=O)[O-])cc1[N+](=O)[O-] | inactive: 9.15% |
| CC(C)(C)c1ccc(OP(C)(=O)O)cc1 | inactive: -10.8% |
| COc1ccccc1OP(C)(=O)Nc1ccccc1Br (stereo unspecified) | inactive: 4.45% |
| CN(C)CCOC(=O)C(O)(c1ccccc1)C1CCCC1 (stereo unspecified) | inactive: -5.48% |
| COc1ccc(OP(C)(=O)Nc2ccccn2)cc1 (stereo unspecified) | inactive: -4.06% |
| COc1ccccc1OP(C)(=O)Nc1ccc(Br)cc1 (stereo unspecified) | inactive: -2.06% |
| CP(=O)(Nc1ccccn1)Oc1ccccc1 (stereo unspecified) | inactive: -0.702% |
| COc1ccccc1OP(C)(=O)Nc1ccc(C)cc1C (stereo unspecified) | inactive: -4.46% |
| O=[N+]([O-])c1cc([N+](=O)[O-])c(Nc2ccccn2)c([N+](=O)[O-])c1 | inactive: 3.95% |
| Cc1c(NP(C)(=O)Oc2ccc(C(C)C)cc2)c(=O)n(-c2ccccc2)n1C (stereo unspecified) | inactive: -3.98% |
| COc1ccc(OP(C)(=O)Nc2ccccc2Br)cc1 (stereo unspecified) | inactive: -6.95% |
| O=C1C(O)=C([N+](=O)[O-])C(=O)C(O)=C1[N+](=O)[O-] | inactive: -5.2% |
| Cc1cc(C)cc(OP(C)(=O)Nc2cccc(C(F)(F)F)c2)c1 (stereo unspecified) | inactive: -5.45% |
| CP(=O)(OCCOc1ccccc1)OCCOc1ccccc1 | inactive: -2.1% |
| CCCCCCCCCCCCCCCC1C[N+](C)(C)CCOP(C)(=O)O1 (stereo unspecified) | inactive: -6.44% |
| CP(=O)(Nc1ccc(Cl)cc1Cl)Oc1ccccc1 (stereo unspecified) | inactive: 11.6% |
